Source: PMC9469500, “Targeting an Initiator Allergen Provides Durable and Expansive Protection against House Dust Mite Allergy” (ACS Pharmacology & Translational Science, 2022)
Counter-ions that a name gives are not always drawn.

Target: T1, Der p 1 (Dermatophagoides pteronyssinus, UniProt P08176)
T1 construct: from tissue; host or cells: spent culture medium of Dermatophagoides pteronyssinus (native HDM extract); ammonium sulfate precipitation, size exclusion, SBTI column, Resource Q
T1 sequence (P08176 99-320): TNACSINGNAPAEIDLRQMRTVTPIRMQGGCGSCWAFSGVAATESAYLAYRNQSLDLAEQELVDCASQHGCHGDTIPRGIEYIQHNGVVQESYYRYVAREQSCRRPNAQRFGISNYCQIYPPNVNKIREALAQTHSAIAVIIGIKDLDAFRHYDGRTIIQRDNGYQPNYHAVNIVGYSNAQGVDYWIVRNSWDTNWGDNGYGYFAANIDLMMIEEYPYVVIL
Assay: biochemical
Conditions: read-out: target potency (Ki)
Experimental: Assays were assembled in 96-well plate format using a PerkinElmer Multiprobe II Plus HTS EX robot (PerkinElmer, UK). […] Reactions were initiated by the addition of 10 μL Der p 1 dissolved in the reaction buffer at 2.5 μg/mL and followed at 30 °C by measurement of fluorescence (excitation/emission 330/420 nm) using either a Fusion Alpha-FP or Envision plate reader fitted with a temperature-controlled carrier (PerkinElmer, UK).
Inhibitor kinetics were analyzed from progress curves. For reversible inhibitors, IC50 values were calculated conventionally.

For CC(C)[C@H](NC(=O)[C@H](C)NC(=O)[C@@H](NC(=O)C1CC[N+](C)(C)CC1)C(C)(C)C)C(=O)C(=O)NCc1ccccc1 [Compound 2, 4-{(S)-1-[(S)-1-((S)-1-benzylaminooxalyl-2-methyl-propylcarbamoyl)-ethylcarbamoyl]-2,2-dimethyl-propylcarbamoyl}-1,1-dimethyl-piperidinium formate], which Ki is on record?
Its Ki is 1 nM.
